Assay results published in patent US10377711B2, “Cannabinoid type 1 receptor modulators” (priority 2014, dated 2019).

Test: in vitro
Conditions: for microsomal CLint at 3 μM: both, microsomes, pH 7.4; for T1/2 (min) HLM: human liver microsomes; for T1/2 (min) HLM / T1/2 (min) RLM: 3 μM, 0.5 mg/mL protein; for T1/2 (min) RLM: rat liver microsomes
Experimental: Human and Rat Liver Microsomal Stability Assay
The metabolic stability of the compounds of the Formula (I) was measured by determination of the rate of compound disappearance when incubated in the presence of both human and rat liver microsomes. Liver microsomes are prepared from the endoplasmic reticulum of hepatocytes and are the primary source of the most important enzymes (cytochrome P450) involved in drug metabolism. Study of drug stability in the presence of liver microsomes is accepted as a valuable model permitting rapid prediction of in vivo drug stability.
Human and rat liver microsomes were obtained from a commercial source. Test compounds (3 μM) were incubated with pooled liver microsomes (male and female). Samples were incubated for a 45 minute period and removed at 5 time points and test compounds were analysed by LC-MS/MS.
The final incubation volume was 25 μL. A control incubation was included for each compound tested, where 0.1 M phosphate buffer pH 7.4 was added instead of NADPH. The control compounds testosterone and 7-hydroxycoumarin were included in each experiment and all incubations were performed singularly for each compound.
Each compound was incubated for 0, 5, 15, 30, and 45 minutes. The control (minus NADPH) was incubated for 45 minutes only. The reactions were stopped by the addition of 50 μL methanol containing internal standard at the appropriate time points. The incubation plates were centrifuged at 2500 rpm for 20 minutes at 4° C. to precipitate the protein.
Following protein precipitation, the sample supernatants were combined in cassettes of up to 4 compounds and analysed using standard LC-MS/MS conditions.
From a plot of the natural logarithm of the peak area ratio (i.e., the ratio of compound peak area:internal standard peak area) against time, the gradient of the line was determined. Subsequently, half-life and intrinsic clearance were calculated using the equations below: Eliminated Rate Constant (k)=(−Gradient).

SMILES | microsomal CLint at 3 μM (human) | microsomal CLint at 3 μM (rat) | T1/2 (min) HLM | T1/2 (min) RLM
N#CC(C#N)C(c1ccccc1)c1c(-c2ccccc2)[nH]c2ccccc12 (centres unmarked) [ABD1100, 2-(Phenyl(2-phenyl-1H-indol-3-yl)methyl)malononitrile] | 52.9 µL/min/mg | 93.7 µL/min/mg | 26.2 min | 14.8 min
N#CCC(c1ccccc1)c1c(-c2ccccc2)[nH]c2ccccc12 (centres unmarked) [ABD1102, 3-Phenyl-3-(2-phenyl-1H-indol-3-yl)propanenitrile] | 32.4 µL/min/mg | 95.4 µL/min/mg | 42.7 min | 14.5 min
Cc1ccc2c(C(CC#N)c3ccccc3)c(-c3ccccc3)[nH]c2c1 (centres unmarked) [ABD1132, 3-(6-Methyl-2-phenyl-1H-indol-3-yl)-3-phenylpropanenitrile] | 30.3 µL/min/mg | 74 µL/min/mg | 45.7 min | 18.7 min
Cc1ccc2c(C(c3ccccc3)C(C#N)C#N)c(-c3ccccc3)[nH]c2c1 (centres unmarked) [ABD1133, 2-((6-Methyl-2-phenyl-1H-indol-3-yl)(phenyl)methyl)malononitrile] | 35.2 µL/min/mg | 112 µL/min/mg | 39.3 min | 12.4 min
FC(F)(F)CC(c1ccccc1)c1c(-c2ccccc2)[nH]c2ccccc12 (centres unmarked) [ABD1137, 2-Phenyl-3-(3,3,3-trifluoro-1-phenylpropyl)-1H-indole] | 16.3 µL/min/mg | 34 µL/min/mg | 85.2 min | 40.7 min
O=C(C(c1ccccc1)c1c(-c2ccccc2)[nH]c2ccccc12)C(F)(F)F (centres unmarked) [ABD1139, 1,1,1-Trifluoro-3-phenyl-3-(2-phenyl-1H-indol-3-yl)propan-2-one] | 27.1 µL/min/mg | 33.5 µL/min/mg | 51.1 min | 41.4 min
Cc1ccc2c(C(CC(F)(F)F)c3ccccc3)c(-c3ccccc3)[nH]c2c1 (centres unmarked) [ABD1145, 6-Methyl-2-phenyl-3-(3,3,3-trifluoro-1-phenylpropyl)-1H-indole] |  | 49.2 µL/min/mg |  | 28.2 min
Cc1ccc2c(C(C(=O)C(F)(F)F)c3ccccc3)c(-c3ccccc3)[nH]c2c1 (centres unmarked) [ABD1146, 1,1,1-Trifluoro-3-(6-methyl-2-phenyl-1H-indol-3-yl)-3-phenylpropan-2-one] | 5.2 µL/min/mg | 55.8 µL/min/mg | 267 min | 24.8 min
Cc1ccc2c(C(CC3CC3)CC(F)(F)F)c(-c3ccccc3)[nH]c2c1 (centres unmarked) [ABD1156, 3-(1-Cyclopropyl-4,4,4-trifluorobutan-2-yl)-6-methyl-2-phenyl-1H-indole] | 18.6 µL/min/mg | 70.1 µL/min/mg | 74.4 min | 19.8 min
Cc1ccc2c(C(CC(F)(F)F)c3cccs3)c(-c3ccccc3)[nH]c2c1 (centres unmarked) [ABD1187, 6-Methyl-2-phenyl-3-(3,3,3-trifluoro-1-(thiophen-2-yl)propyl)-1H-indole] |  | 79.3 µL/min/mg | 108 min | 17.5 min
Cc1ccc2c(C(CC(F)(F)F)c3ccco3)c(-c3ccccc3)[nH]c2c1 (centres unmarked) [ABD1188, 6-Methyl-2-phenyl-3-(3,3,3-trifluoro-1-(furan-2-yl)propyl)-1H-indole] | 23.4 µL/min/mg | 134 µL/min/mg | 59.1 min | 10.3 min
FC(F)(F)CC(c1ccco1)c1c(-c2ccccc2)[nH]c2cc(Cl)ccc12 (centres unmarked) [ABD1216, 6-Chloro-2-phenyl-3-(3,3,3-trifluoro-1-(furan-2-yl)propyl)-1H-indole] | 21.7 µL/min/mg | 29.9 µL/min/mg | 63.9 min | 46.3 min
FC(F)(F)CC(c1cccs1)c1c(-c2ccccc2)[nH]c2cc(Cl)ccc12 (centres unmarked) [ABD1217, 6-Chloro-2-phenyl-3-(3,3,3-trifluoro-1-(thiophen-2-yl)propyl)-1H-indole] | 8.8 µL/min/mg | 25.5 µL/min/mg | 157 min | 54.3 min
FC(F)(F)CC(c1ccccc1)c1c(-c2ccccc2)[nH]c2cc(Cl)ccc12 (centres unmarked) [ABD1218, 6-Chloro-2-phenyl-3-(3,3,3-trifluoro-1-phenylpropyl)-1H-indole] | 14.1 µL/min/mg | 17.8 µL/min/mg | 98.6 min | 78.0 min
